Only a part is listed here, and it is no random draw. Calls of active or inactive are those of the source. Cut-off read from the data, not from the text of the source: active = inhibition above about 24%; inactive = the rest.

By UniProt entry, the sequences of proteins in these tests, tags left out. Where a name states a change or a piece, a line headed by the entry shows the natural chain unless it says otherwise.
UniProt P48145: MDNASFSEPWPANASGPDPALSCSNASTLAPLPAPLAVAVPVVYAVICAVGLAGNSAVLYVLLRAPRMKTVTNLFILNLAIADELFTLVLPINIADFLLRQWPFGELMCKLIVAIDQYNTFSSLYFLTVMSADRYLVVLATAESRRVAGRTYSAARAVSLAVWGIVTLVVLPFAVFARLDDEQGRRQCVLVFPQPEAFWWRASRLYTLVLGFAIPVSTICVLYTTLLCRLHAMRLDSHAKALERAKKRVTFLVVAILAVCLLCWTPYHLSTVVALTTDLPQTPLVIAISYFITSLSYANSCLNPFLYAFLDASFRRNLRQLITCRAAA

As a reminder, the inhibition is the relative decrease from the control value, in per cent.

In this assay the target is Neuropeptides B/W receptor type 1 (Homo sapiens) (UniProt P48145). Put plainly: blockers of human NPBW1 receptor – cell-based, fluorescence, single concentration, confirmation (AID 1952).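 Note: stimulated with the GPR7 agonist NPW; 0% = agonist plus vehicle and 100% = vehicle alone without agonist.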 The following applies: GPR7-expressing cells, calcium fluorescence antagonist mode; at 4.4 µM; stronger effect = higher value.
`O=c1c2cc([N+](=O)[O-])ccc2[nH]c2c([N+](=O)[O-])cc([N+](=O)[O-])cc12`: the inhibition is active: 72.8%.

As to `COc1ccccc1OP(=O)(Nc1ccc(C)cn1)Oc1ccccc1OC`, the inhibition was inactive: -8.08%.

For the origin of these results see PubChem BioAssay AID1952 (The Scripps Research Institute Molecular Screening Center, 2009).
